Patent US9180118B2, “Thiadiazolidinone derivatives” (University of Rochester, priority 2006, dated 2015)

Experiments:
[1] = system: normal specimens (BM, CB, MPB)
[2] = system: primary AML specimens

SMILES: O=C1N=C(O)SC1=Cc1ccc2c(c1)OC(F)(F)O2 [5-(2,2-Difluoro-benzo[1,3]dioxol-5-ylmethylene)-thiazolidine-2,4-dione]
- Cytotoxic Normal [1]: No
- Cytotoxic AML [2]: No
